Results on two molecules are retold here after PubChem BioAssay AID430 (Sanford-Burnham Center for Chemical Genomics, 2006).

This is a selection; strong and weak results do not stand in their true shares. Potency and affinity values are given separately. Some of these compounds have results that are not shown, active ones among them. Calls of active or inactive are those of the source. Rule as the data show it: active = cytotoxicity above about 50%; inactive = the rest.

The assay can be described thus: cytotoxicity in HPDE-C7 cells, cell-based, fluorescence, HTS (AID 430).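 Also: cells exposed to compound for 48 hours before viability readout; 0% = vehicle and 100% = reference cytotoxic drug.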 The note with it: HPDE-C7 pancreatic duct cells viability, at 10 µM, hits give high values.
In the case of `O=C(OC1CN2CCC1CC2)C(CO)(c1ccccc1)c1ccccc1` (configuration not stated), the cytotoxicity is inactive: 7.9%. In the case of `CN(C)c1cccc(C(=O)NCC2(N(C)C)CCCCC2)c1` it was inactive: -0.3%.
